ChEMBL document CHEMBL1149217, “3-trifluoromethyl-4-nitro-5-arylpyrazoles are novel K(ATP) channel agonists” (Bioorg Med Chem Lett, 2004)

Sequences of proteins named here, by UniProt entry; tags and fusion partners are left off. A change or cut given only in a name is not applied to a line headed by its entry.
UniProt Q14654: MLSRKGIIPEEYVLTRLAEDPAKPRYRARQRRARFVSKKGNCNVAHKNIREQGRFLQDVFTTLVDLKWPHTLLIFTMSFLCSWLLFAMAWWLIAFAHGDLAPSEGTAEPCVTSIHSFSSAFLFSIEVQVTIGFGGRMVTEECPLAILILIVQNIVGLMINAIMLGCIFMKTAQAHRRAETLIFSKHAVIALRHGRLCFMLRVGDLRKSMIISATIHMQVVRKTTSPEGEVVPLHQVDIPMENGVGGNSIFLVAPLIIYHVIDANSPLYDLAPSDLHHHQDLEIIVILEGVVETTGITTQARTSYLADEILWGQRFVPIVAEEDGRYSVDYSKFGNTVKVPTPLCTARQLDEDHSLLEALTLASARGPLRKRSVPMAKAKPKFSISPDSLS
UniProt Q09428: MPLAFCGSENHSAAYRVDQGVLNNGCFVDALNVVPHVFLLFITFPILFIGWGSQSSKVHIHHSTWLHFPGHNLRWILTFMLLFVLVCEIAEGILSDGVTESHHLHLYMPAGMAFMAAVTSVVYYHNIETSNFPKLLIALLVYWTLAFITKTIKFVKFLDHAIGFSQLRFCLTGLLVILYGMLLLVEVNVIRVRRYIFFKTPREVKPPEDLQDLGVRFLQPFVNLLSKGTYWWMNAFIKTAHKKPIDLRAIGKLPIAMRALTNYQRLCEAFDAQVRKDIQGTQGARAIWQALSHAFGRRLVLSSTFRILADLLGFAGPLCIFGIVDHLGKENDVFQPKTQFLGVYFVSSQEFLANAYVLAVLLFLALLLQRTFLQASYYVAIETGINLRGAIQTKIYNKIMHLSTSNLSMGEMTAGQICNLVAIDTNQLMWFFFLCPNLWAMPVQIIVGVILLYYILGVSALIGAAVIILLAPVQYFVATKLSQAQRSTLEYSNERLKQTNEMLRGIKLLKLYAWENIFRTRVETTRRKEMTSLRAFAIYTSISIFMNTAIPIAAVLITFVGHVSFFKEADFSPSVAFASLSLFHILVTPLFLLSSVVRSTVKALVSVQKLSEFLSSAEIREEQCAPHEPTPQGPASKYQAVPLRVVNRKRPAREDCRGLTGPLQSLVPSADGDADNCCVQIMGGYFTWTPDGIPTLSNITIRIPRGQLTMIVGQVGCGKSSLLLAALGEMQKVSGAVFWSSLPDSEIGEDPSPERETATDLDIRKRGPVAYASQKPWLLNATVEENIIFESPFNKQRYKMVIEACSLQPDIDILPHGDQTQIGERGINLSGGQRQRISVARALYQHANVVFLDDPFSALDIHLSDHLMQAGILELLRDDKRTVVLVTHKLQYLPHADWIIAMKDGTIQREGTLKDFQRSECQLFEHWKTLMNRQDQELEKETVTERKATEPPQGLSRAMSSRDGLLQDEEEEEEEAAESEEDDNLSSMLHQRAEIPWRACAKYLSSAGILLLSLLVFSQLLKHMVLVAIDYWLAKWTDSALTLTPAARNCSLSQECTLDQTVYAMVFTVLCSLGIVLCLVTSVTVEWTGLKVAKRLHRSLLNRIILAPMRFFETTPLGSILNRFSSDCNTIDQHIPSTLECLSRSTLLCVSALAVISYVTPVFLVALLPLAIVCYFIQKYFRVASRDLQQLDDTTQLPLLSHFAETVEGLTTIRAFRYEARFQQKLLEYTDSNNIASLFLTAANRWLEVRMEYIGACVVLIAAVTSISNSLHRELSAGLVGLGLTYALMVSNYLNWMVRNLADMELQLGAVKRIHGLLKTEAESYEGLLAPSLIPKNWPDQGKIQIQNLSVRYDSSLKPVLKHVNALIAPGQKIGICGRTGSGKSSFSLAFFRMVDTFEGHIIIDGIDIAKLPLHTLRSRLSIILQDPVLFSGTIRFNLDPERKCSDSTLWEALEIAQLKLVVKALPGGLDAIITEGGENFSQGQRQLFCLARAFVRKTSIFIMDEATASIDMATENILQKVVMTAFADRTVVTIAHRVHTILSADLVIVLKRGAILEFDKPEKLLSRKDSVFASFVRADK

Target: Sulfonylurea receptor 1, Kir6.2 (Homo sapiens, UniProt Q14654+Q09428)
Experiment: […] of human KATP (SUR1/Kir6.2) channel expressed in Xenopus oocytes
Conditions: oocyte

`O=[N+]([O-])c1ccc(-c2n[nH]c(C(F)(F)F)c2[N+](=O)[O-])c([N+](=O)[O-])c1` gave an EC50 of 0.07 µM.
